Test results taken from US8338565B2, “Macrocyclic compounds for inhibition of tumor necrosis factor alpha” (Ensemble Therapeutics Corporation, priority 2008, dated 2012).
pIC50: −log10 of the molar value. Like-named read-outs stand apart in the source and are kept apart here.

Sequences of proteins named here, by UniProt entry; tags and fusion partners are left off. Residues count along the entry.
UniProt P01375, 77-233 limits assumed: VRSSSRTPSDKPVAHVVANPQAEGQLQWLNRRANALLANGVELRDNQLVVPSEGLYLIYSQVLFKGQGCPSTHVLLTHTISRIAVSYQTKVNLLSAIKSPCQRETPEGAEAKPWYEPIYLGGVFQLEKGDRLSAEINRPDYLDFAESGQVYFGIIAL

Molecular target: TNFα / TNFα receptor (TNFα R1/Fc) (Homo sapiens, UniProt P01375)
Assay: Inhibition of binding of TNFα to the TNFα receptor (plate ELISA competition)
Conditions: read-out: Activity (IC50, inhibition of TNFα binding to TNFα R1/Fc), Table 2
Procedure: The compounds listed in Table 2 below were assayed for ability to inhibit binding of TNFα to the TNFα receptor (TNFα R1/Fc). The assays were performed as described in the following procedure: TNFα (R&D Systems) was coated on high binding plate wells (Corning 96-well) at a single uniform concentration of 15 nM, 100 μL/well in PBS. The coating proceeded for 30 minutes at 37° C. then 10 minutes at 4° C. The coated plate was washed with PBST, then 250 μL/well of blocking solution (PBST 0.1% BSA, bovine serum albumin) was added and incubation proceeded for 30-45 minutes at room temperature with agitation. The solution phase competition proceeded separately with the dilutions of test compound in PBST (phosphate buffered saline with Tween 20), 2% DMSO in a polypropylene plate (Corning 96-well storage plate) with a single concentration, 8.33 nM of the high affinity receptor for TNFα (R&D Systems). This solution phase incubation proceeded for 30 minutes at room temperature with agitation and was then added to the washed TNFα coated assay plate, 100 μL/well, and was incubated for a further 30 minutes at room temperature with agitation. The assay plate was washed and 100 μL goat anti-human IgG (Fc) HRP labeled antibody in PBST, 13 pM, (KPL Cat#04-10-2) was added to each well. This incubation proceeded for 25-30 minutes at room temperature with agitation. Following this incubation step, the plate was washed and a 100 μL TMB solution (SUREBLUE™ TMB Peroxidase substrate, KPL) was added per well and allowed to stand approximately 3-5 minutes for development. The TMB reaction was stopped with the addition of 0.5N HCl and then the plate was read for absorbance at 450 nm.

With `O=C1COc2ccc(cc2)C[C@@H](C(=O)NCS(=O)(=O)O)NC(=O)[C@H](Cc2ccccc2)NC(=O)[C@H](Cc2ccc(-c3ccccc3)cc2)NC(=O)[C@H](Cc2cccs2)N1` the pIC50 was less than 4.00.
For `O=C1COc2ccc(cc2)C[C@@H](C(=O)NCCCS(=O)(=O)O)NC(=O)[C@H](CCc2ccccc2)NC(=O)[C@@H](Cc2ccc(-c3ccccc3)cc2)NC(=O)[C@H](Cc2ccc(-c3ccccc3)cc2)N1`, the pIC50 was 4.52 to 5.00.
`O=C1COc2ccc(cc2)C[C@@H](C(=O)O)NC(=O)[C@H](Cc2c[nH]c3ccccc23)NC(=O)[C@@H](Cc2ccc(-c3ccccc3)cc2)NC(=O)[C@H](Cc2ccncc2)N1` [Compound 653] was tested, and the pIC50 was greater than 5.00.
Molecule `O=C1COc2ccc(cc2)C[C@@H](C(=O)O)NC(=O)[C@H](Cc2cccc(F)c2)NC(=O)[C@@H](Cc2ccc(-c3ccccc3)cc2)NC(=O)[C@H](Cc2ccncc2)N1` has a pIC50 greater than 5.00.
With `CN1C(=O)[C@@H](Cc2ccc(-c3ccccc3)cc2)NC(=O)[C@H](Cc2cccs2)NC(=O)COc2ccc(cc2)C[C@@H](C(=O)O)NC(=O)[C@@H]1Cc1ccccc1` the pIC50 was less than 4.00.
For `O=C1COc2ccc(cc2)C[C@@H](C(=O)O)NC(=O)[C@H](CCc2ccccc2)NC(=O)[C@@H](Cc2ccc(-c3ccccc3)cc2)NC(=O)[C@H](Cc2cccc(F)c2)N1`, the pIC50 was greater than 5.00.
In the case of `O=C1COc2ccc(cc2)C[C@@H](C(=O)NCS(=O)(=O)O)NC(=O)[C@H](Cc2ccc(-c3cccnc3)cc2)NC(=O)[C@@H](Cc2ccc(-c3ccccc3)cc2)NC(=O)[C@H](Cc2cccs2)N1`, the pIC50 was greater than 5.00.
In the case of `O=C1C[C@@H](c2ccc(O)cc2)NC(=O)[C@@H](Cc2ccc(-c3ccccc3)cc2)NC(=O)[C@H](Cc2ccncc2)NC(=O)COc2ccc(cc2)C[C@@H](C(=O)O)N1`, the pIC50 was less than 4.00.
Work on `CS(=O)(=O)CC[C@@H]1NC(=O)COc2ccc(cc2)C[C@@H](C(=O)O)NC(=O)[C@H](CCc2ccccc2)NC(=O)[C@@H](Cc2ccc(-c3ccccc3)cc2)NC1=O` yielded a pIC50 greater than 5.00.
Work on `COc1cccc(C[C@@H]2NC(=O)[C@@H](Cc3ccc(-c4ccccc4)cc3)NC(=O)[C@H](Cc3cccs3)NC(=O)COc3ccc(cc3)C[C@@H](C(=O)O)NC2=O)c1` yielded a pIC50 of 4.52 to 5.00.
`CC(C)[C@@H]1NC(=O)COc2ccc(cc2)C[C@@H](C(=O)O)NC(=O)[C@H](CCc2ccccc2)NC(=O)[C@@H](Cc2ccc(-c3ccccc3)cc2)NC1=O` gave a pIC50 greater than 5.00.
`O=C1COc2ccc(cc2)C[C@@H](C(=O)NCc2nnn[nH]2)NC(=O)[C@H](CCc2ccccc2)NC(=O)[C@@H](Cc2ccc(-c3ccccc3)cc2)NC(=O)[C@H](Cc2ccncc2)N1` showed a pIC50 greater than 5.00.
`O=C1COc2ccc(cc2)C[C@@H](C(=O)NCc2nnn[nH]2)NC(=O)[C@H](CCc2ccccc2)NC(=O)[C@@H](Cc2ccc(-c3ccccc3)cc2)NC(=O)[C@H](Cc2ccc(-c3ccccc3)cc2)N1` gave a pIC50 greater than 5.00.
`CS(=O)(=O)NC(=O)[C@@H]1Cc2ccc(cc2)OCC(=O)N[C@@H](Cc2cccs2)C(=O)N[C@H](Cc2ccc(-c3ccccc3)cc2)C(=O)N[C@@H](CCc2ccccc2)C(=O)N1` gave a pIC50 greater than 5.00.
For `O=C1COc2ccc(cc2)C[C@@H](C(=O)NCCS(=O)(=O)O)NC(=O)[C@H](CCc2ccccc2)NC(=O)[C@@H](Cc2ccc(-c3ccccc3)cc2)NC(=O)[C@H](Cc2cccs2)N1`, the pIC50 was greater than 5.00.
`O=C1COc2ccc(cc2)C[C@@H](C(=O)O)NC(=O)[C@H](Cc2ccccc2F)NC(=O)[C@@H](Cc2ccc(-c3ccccc3)cc2)NC(=O)[C@H](Cc2ccncc2)N1` was tested, and the pIC50 was greater than 5.00.
In the case of `CN1C(=O)COc2ccc(cc2)C[C@@H](C(=O)O)NC(=O)[C@H](CCc2ccccc2)NC(=O)[C@@H](Cc2ccc(-c3ccccc3)cc2)NC(=O)[C@@H]1Cc1ccccc1`, the pIC50 was less than 4.00.
In the case of `O=C1COc2ccc(cc2)C[C@@H](C(=O)O)NC(=O)[C@H](CCc2ccccc2)NC(=O)[C@@H](Cc2ccc(-c3cccnc3)cc2)NC(=O)[C@H](Cc2cccs2)N1`, the pIC50 (tested form: TFA) was greater than 5.00.
With `O=C1COc2ccc(cc2)C[C@@H](C(=O)O)NC(=O)[C@H](CCc2ccccc2)NC(=O)[C@@H](Cc2ccc(-c3ccccc3)cc2)NC(=O)[C@H](Cc2ccc(-c3cccs3)cc2)N1` the pIC50 was greater than 5.00.
`O=C1COc2ccc(cc2)C[C@@H](C(=O)NCCc2nnn[nH]2)NC(=O)[C@H](CCc2ccccc2)NC(=O)[C@@H](Cc2ccc(-c3ccccc3)cc2)NC(=O)[C@H](Cc2ccc(-c3ccccc3)cc2)N1` gave a pIC50 greater than 5.00.
Work on `O=C1COc2ccc(cc2)C[C@@H](C(=O)NCS(=O)(=O)O)NC(=O)[C@H](CCc2ccccc2)NC(=O)[C@@H](Cc2ccc(-c3ccccc3)cc2)NC(=O)[C@H](Cc2ccc(-c3ccccc3)cc2)N1` yielded a pIC50 of less than 4.00.
In the case of `O=C1COc2ccc(cc2)C[C@@H](C(=O)NCS(=O)(=O)O)NC(=O)[C@H](CCc2ccccc2)NC(=O)[C@@H](Cc2ccc(-c3ccccc3)cc2)NC(=O)[C@H](Cc2ccncc2)N1`, the pIC50 was 4.52 to 5.00.
Molecule `O=C1COc2ccc(cc2)C[C@@H](C(=O)O)NC(=O)[C@H](Cc2cccs2)NC(=O)[C@@H](Cc2ccc(-c3ccccc3)cc2)NC(=O)[C@H](Cc2cccs2)N1` has a pIC50 greater than 5.00.
`O=C1COc2ccc(cc2)C[C@@H](C(=O)NCCS(=O)(=O)O)NC(=O)[C@H](CCc2ccccc2)NC(=O)[C@@H](Cc2ccc(-c3ccccc3)cc2)NC(=O)[C@H](Cc2ccncc2)N1` gave a pIC50 greater than 5.00.
`O=C1COc2ccc(cc2)C[C@@H](C(=O)NCc2nnn[nH]2)NC(=O)[C@H](CCc2ccccc2)NC(=O)[C@@H](Cc2ccc(-c3ccccc3)cc2)NC(=O)[C@H](Cc2ccc(-c3ccncc3)cc2)N1` was tested, and the pIC50 was greater than 5.00.
For `O=C1COc2ccc(cc2)C[C@@H](C(=O)O)NC(=O)[C@H](CCc2ccccc2)NC(=O)[C@@H](Cc2ccc(-c3ccccc3)cc2)NC(=O)[C@H](Cc2ccc(-c3cc(F)cc(F)c3)cc2)N1`, the pIC50 was greater than 5.00.
Work on `O=C1COc2ccc(cc2)C[C@@H](C(=O)N[C@H](CCc2ccccc2)C(=O)O)NC(=O)[C@H](CCc2ccccc2)NC(=O)[C@@H](Cc2ccc(-c3ccccc3)cc2)NC(=O)[C@H](Cc2ccc(-c3ccccc3)cc2)N1` yielded a pIC50 greater than 5.00.
In the case of `O=C1COc2ccc(cc2)C[C@H](C(=O)NCS(=O)(=O)O)NC(=O)[C@@H](CCc2ccccc2)NC(=O)[C@H](Cc2ccc(-c3ccccc3)cc2)NC(=O)[C@@H](Cc2cccs2)N1`, the pIC50 was greater than 5.00.
For `O=C1COc2ccc(cc2)C[C@@H](C(=O)N[C@@H](CCc2ccccc2)C(=O)O)NC(=O)[C@H](CCc2ccccc2)NC(=O)[C@@H](Cc2ccc(-c3ccccc3)cc2)NC(=O)[C@H](Cc2ccc(-c3ccccc3)cc2)N1`, the pIC50 was less than 4.00.
